According to patent US20210196678A1, “SELECTIVE ANDROGEN RECEPTOR DEGRADER (SARD) LIGANDS AND METHODS OF USE THEREOF” (University of Tennessee Research Foundation, priority 2018, published 2021):

Tests used:
[1] = test system: full length AR; assay: LNCaP or AD1 degradation (full length AR, Western blot); type: cell-based; details: for SARD Activity Full Length % inhibition at 1 μM: first of two values in the cell; for SARD Activity Full Length % inhibition at 10 μM: second of two values in the cell
[2] = test system: AR splice variants
[3] = test system: Intact Sprague Dawley rats; assay: Hershberger assay, seminal vesicles and prostate weights; details: for (Prostate) % diff / (S.V.) % diff: 20 mg/kg Hershberger experiment; for Seminal vesicles weight reduction / in vivo AR antagonism, in words: compared to 1002 or castration
[4] = SARD compound serum concentrations in Hershberger rats (LC-MS/MS)
[5] = 20 mg/kg by mouth daily for 13 days

Row | Structure (SMILES) | SARD Activity S.V. % inhibition at 10 μM [2] [%] | SARD Activity Full Length % inhibition at 1 μM [1] [%] | SARD Activity Full Length % inhibition at 10 μM [1] [%] | (Prostate) % diff ([3]; rats) | (S.V.) % diff ([3]; rats) | Seminal vesicles weight reduction / in vivo AR antagonism, in words ([3]; rats, 20 mg/kg) | Serum Conc. ([4]; Table 4, rats, 20 mg/kg) [nM] | further results
1 | CN(C[C@](C)(O)C(=O)Nc1ccc(C#N)c(C(F)(F)F)c1)c1ccc(C#N)c(-c2ccccc2)c1 [Compound 17] | 80 | – | – | – | – | – | – | SARD Activity Full Length % inhibition at 1, 10 μM ([1]; single value given, concentration not told apart, with 0.1 nM R1881, 24 h): 80%
2 | C[C@](O)(Cn1nc(F)c2cc(F)ccc21)C(=O)Nc1ccc(C#N)c(C(F)(F)F)c1 [Compound 98, (S)-N-(4-Cyano-3-(trifluoromethyl)phenyl)-3-(3,5-difluoro-1H-indazol-1-yl)-2-hydroxy-2-methylpropanamide] | – | 37 | 81 | – | – | – | – | –
3 | C[C@](O)(Cn1cc(-c2ccc(F)cc2)nn1)C(=O)Nc1ccc(C#N)c(C(F)(F)F)c1 [Compound 1045] | – | – | – | .35% | .45% | performed equivocally; also recorded: equivocal | 1209 | Degradation (% at 3 μm) ([1]; 3 μm): 47%; Decrease in Prostate Weight in Rats, % difference from 1002 [3, 5]: 30%; Decrease in Prostate Weight in Rats, % inhibition [3, 5]: 26%; Decrease in Seminal Vesicles Weights in Rats, % difference from 1002 [3, 5]: 12%; Decrease in Seminal Vesicles Weights in Rats, % inhibition [3, 5]: 46%; Prostate weights, in words ([3]; rats, 20 mg/kg, compared to 1002): performed better than 1002; Serum Conc. ([4]; Table 2, rats, 20 mg/kg daily for 13 days): 1209 nM
4 | C[C@](O)(Cn1cc(Cl)cn1)C(=O)Nc1ccc(C#N)c(C(F)(F)F)c1 [Compound 1049] | – | – | – | .20% | .65% | marginally improved | 125 | –
5 | C[C@](O)(Cn1ncc(Cl)c1Br)C(=O)Nc1ccc(C#N)c(C(F)(F)F)c1 [Compound 1067] | 73 | 62 | 88 | – | – | – | – | –

“Also recorded” adds a separate entry of the source.
